## OPERA 2.9 data: properties

Source: data files of OPERA 2.9 (Mansouri et al.), github.com/kmansouri/OPERA.

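The OPERA project collected these measurements from public sources as training and test data for property models. A listed value is a point estimate from one report or more. Method, purity and exact conditions of the single measurements are not given. The measured form (salt, isomer or mixture) is not always the one drawn. Some upstream entries may be estimates or bounds without being marked so.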

The melting point is given in degrees Celsius.
Boiling points are in °C, nominally at 760 mmHg.
logP is the log10 of the octanol-water partition coefficient; higher is more lipophilic.
Water solubility is log10 of mol/L, nominally at 25 °C; higher is more soluble.
Vapor pressure is log10 of mmHg; the set covers 15 to 30 °C, mostly 20 to 25 °C.
Henry's law constant (air-water partitioning) is log10 of atm·m3/mol, nominally at 25 °C.
fu is the fraction unbound in human plasma, from 0 to 1.
Intrinsic clearance (human, µL/min per 10^6 hepatocytes): higher is faster turnover, and 0 stands for none detected.
"n/a" marks a cell with nothing listed here.

structure (SMILES) | mp (°C) | boiling point (°C) | log Kow | log solubility (log10 mol/L) | log VP (log10 mmHg) | log Henry constant (log10 atm·m3/mol) | fu | intrinsic clearance (µL/min/10^6 cells)
Cc1cc2c(c(C3CCCCC3)c1)OP(O)Oc1c(cc(C)cc1C1CCCCC1)C2 | 140.2 | n/a | 7.1 | -6.617 | -6.412 | n/a | n/a | n/a
CC(C)(C)C1CCC2(CC1)OCC(CCl)O2 (centres undefined) | n/a | n/a | 4.46 | -4.522 | -2.878 | n/a | n/a | n/a
CN(C)C(=O)c1cc2cnc(Nc3ccc(N4CCNCC4)cn3)nc2n1C1CCCC1 | 197 | n/a | 0.6 | n/a | -9.869 | n/a | n/a | n/a
COc1ccc(C(=O)Nc2ccc(C3=NNC(=O)CC3C)cc2N)cc1 (centres undefined) | n/a | n/a | -0.1 | -4.655 | n/a | n/a | n/a | n/a
CCCCC(CC)CNc1ccc2ccccc2c1N=Nc1ccc(N=Nc2cccc(C)c2)c(C)c1 (centres undefined) | 67 | n/a | n/a | -8.215 | n/a | n/a | n/a | n/a
Cc1nnc(NS(=O)(=O)c2ccc(N)cc2)s1 | n/a | n/a | n/a | -2.41 | n/a | n/a | 0.08044 | n/a
C=CN1CCCCCC1=O | n/a | n/a | 1.23 | n/a | -1.62 | n/a | n/a | n/a
O=C1Cc2cc(CCCl)c(Cl)cc2N1 | n/a | n/a | 2.93 | -4.778 | -8.011 | n/a | n/a | n/a
CCCCCOc1ccc2c(oc3c(F)c(OCC)ccc32)c1F | 59.4 | 370 | n/a | -7.093 | -7.389 | n/a | n/a | n/a
CCOc1ccc(Cc2cc([C@@H]3O[C@H](COC(C)=O)[C@@H](OC(C)=O)[C@H](OC(C)=O)[C@H]3OC(C)=O)ccc2Cl)cc1 | 130.6 | n/a | 4.75 | -7.712 | -5.593 | n/a | n/a | n/a
CN(C)CCCN1c2ccccc2Sc2ccccc21 | n/a | n/a | n/a | n/a | n/a | n/a | 0.1054 | 22.59
COc1cc(OC)nc(Oc2cccc(Oc3nc(OC)cc(OC)n3)c2C(=O)ON=C(c2ccccc2)c2ccccc2)n1 | n/a | n/a | n/a | -5.24 | -5.129 | n/a | n/a | n/a
CC[C@@]12CC[C@H]3C4=C(CC[C@@H]3[C@H]1CCC2=O)CC(OC)=CC4 (racemic) | n/a | n/a | 5.88 | -5.705 | -7.05 | n/a | n/a | n/a
O=C(O)c1cc(Cn2nnc(C(F)(F)F)n2)nn1-c1ncccc1Cl | n/a | n/a | 0.021 | -2.623 | n/a | n/a | n/a | n/a
COc1cc(NC(=O)C(N=Nc2ccc(-c3ccc(N=NC(C(C)=O)C(=O)Nc4cc(OC)c(Cl)cc4OC)c(Cl)c3)cc2Cl)C(C)=O)c(OC)cc1Cl (centres undefined) | n/a | n/a | 0.51 | -8.005 | n/a | n/a | n/a | n/a
COc1ccc([N+](=O)[O-])cc1OCCCCl | 92.65 | n/a | 2.595 | n/a | -5.824 | n/a | n/a | n/a
COc1nc(OC)nc(C(=O)c2cccc(F)c2N(C)S(=O)(=O)C(F)F)n1 | 102.8 | n/a | 1.5 | -4.065 | -7.319 | n/a | n/a | n/a
Cc1cccc(CC(C)(C)CO)c1 | 23.8 | n/a | 3.225 | -2.827 | -1.497 | n/a | n/a | n/a
CC(COc1ccc(C(C)(C)C)cc1)OS(=O)OCCCl (centres undefined) | n/a | n/a | n/a | -5.75 | -6.662 | -5.72 | n/a | n/a
CC(=O)[O-].COc1ccc(N(C)/N=C/C2=[N+](C)c3ccccc3C2(C)C)cc1 | -12.2 | n/a | n/a | -2.988 | n/a | n/a | n/a | n/a
CCCCC1CCC(C2CCC(CCC)CC2)CC1 (centres undefined) | 97.1 | 352 | 4.4 | -6.644 | -4.679 | n/a | n/a | n/a
CCCCCCCCC=CCCCCCCCC(=O)OCCCCCCCCCCCC | 6 | n/a | n/a | -6.955 | n/a | n/a | n/a | n/a
O=C(NC(=O)c1c(F)cccc1F)Nc1cc(C(F)(F)F)cc(C(F)(F)F)c1Cl | n/a | n/a | n/a | -7.17 | -7.693 | -6.404 | n/a | n/a
Cc1cc(N(C)C)nc(Cl)n1 | n/a | n/a | n/a | n/a | -1.638 | -7.423 | n/a | n/a
CCCC(CCC)CCCC1COCCN1CCO.Cl (centres undefined) | 67.2 | n/a | n/a | n/a | -4.648 | n/a | n/a | n/a
CCCCCCCCCCCCCCCCCCCCCCOC(=O)CCCCCCCCCCCCCCCCC | 66.5 | n/a | n/a | -6.071 | n/a | n/a | n/a | n/a
O=S(=O)([O-])c1ccc(/N=N/c2ccc(O)c(/N=N/c3ccc(S(=O)(=O)[O-])c4ccccc34)c2O)c2ccccc12.[Na+].[Na+] | n/a | n/a | -2.019 | -2.604 | n/a | n/a | n/a | n/a
CC(C)COC(=O)CCCCC(=O)OCC(C)C | n/a | n/a | 4.3 | -3.821 | n/a | n/a | n/a | 865
O=C1CCC(C2CCC(c3ccc(F)c(F)c3)CC2)CC1 (centres undefined) | n/a | n/a | 5.3 | -5.187 | -5.895 | n/a | n/a | n/a
CC1=CC2C(C=O)CC1CC2C(C)C (centres undefined) | n/a | n/a | 4.155 | -3.851 | -1.822 | n/a | n/a | n/a
CC(C)c1ccc(CCC=O)cc1 | n/a | n/a | 3.5 | -3.303 | -2.216 | n/a | n/a | n/a
CCCCCCCCC(O)CO (centres undefined) | n/a | n/a | 1.99 | -2.479 | -4.307 | n/a | n/a | n/a
C=CCOC(=O)C(C)(C)O | -36.6 | 169.9 | n/a | n/a | -0.052 | n/a | n/a | n/a
C[Si](C)(C)O | -7.45 | n/a | n/a | n/a | 1.131 | n/a | n/a | n/a
SCCSCCS | n/a | n/a | 2.52 | -2.396 | -2.173 | n/a | n/a | n/a
C=CC(=O)NC(C)(C)CC(C)(C)C | n/a | n/a | 2.25 | -2.259 | -3.185 | n/a | n/a | n/a

The last 5 entries again:

structure (SMILES)	mp (°C)	boiling point (°C)	log Kow	log solubility (log10 mol/L)	log VP (log10 mmHg)	log Henry constant (log10 atm·m3/mol)	fu	intrinsic clearance (µL/min/10^6 cells)
CCCCCCCCC(O)CO (centres undefined)	n/a	n/a	1.99	-2.479	-4.307	n/a	n/a	n/a
C=CCOC(=O)C(C)(C)O	-36.6	169.9	n/a	n/a	-0.052	n/a	n/a	n/a
C[Si](C)(C)O	-7.45	n/a	n/a	n/a	1.131	n/a	n/a	n/a
SCCSCCS	n/a	n/a	2.52	-2.396	-2.173	n/a	n/a	n/a
C=CC(=O)NC(C)(C)CC(C)(C)C	n/a	n/a	2.25	-2.259	-3.185	n/a	n/a	n/a